Species on record: Homo sapiens
Experiment: Selectivity ratio of IC50 for human recombinant MAO-B to IC50 for human mGluR5

## Cc1ccc(Nc2ncc3c(n2)CC(C)CC3=O)cc1 (racemic)
  Ratio IC50: 0.09

Source: ChEMBL document CHEMBL2407066, “Discovery, synthesis, and structure-activity relationships of 2-aminoquinazoline derivatives as a novel class of metabotropic glutamate receptor 5 negative allosteric modulators” (Bioorg Med Chem Lett, 2013)
